Experiments:
CaM = conditions: read-out: CaM Kd (References); F-PMCA peptide as probe; cited from earlier work
centrin1 = centrin1 (Homo sapiens, UniProt Q12798); assay: Fluorescence anisotropy competition: displacement of F-Sfi1 from centrin1 by CaM inhibitors; type: binding; conditions: read-out: Centrin1 Mean Kd (Repeat Values); 100 nM F-Sfi1 and 250 nM His-centrin1, overnight at RT; Kd converted from IC50
Experimental: The Sfi1 peptide was derived from 670-REVAA-RESQH-NRQLL-RGALR-RWK-692 of human Sfi1 and the fluorescein was attached to the native C-terminal Lys. Sfi1 peptide titration was performed in a buffer composed of 10 mM HEPES pH 7.4, 100 mM CaCl2, and 0.005% v/v Tween 20. For binding, to a 2-fold dilution series of centrin1, 100 nM of Sfi1 peptide was added, and the reaction mix was incubated for 45 min at RT before anisotropy measurements. For measuring the IC50 of inhibitors to centrin1, to the 3-fold dilution series of inhibitors in the assay buffer, a complex of 100 nM fluorescein labelled Sfi1 peptide and 250 nM His-centrin1 was added in 20 µL volume in a 384-well plate. The fluorescence anisotropy was measured after overnight incubation at RT.
The fluorescence anisotropy was measured on a Clariostar (BMG Labtech, Ortenberg, Germany) plate reader using the fluorescence intensity signal recorded from vertical (Iv)- and horizontal (Ih)-polarised light using a fluorescence polarisation module (λexcitation 482 ± 8 nm and λemission 530 ± 20 nm). Fluorescence anisotropy was calculated from the measured fluorescence intensities according to r=Iv−GλIh/Iv+2GλIh, where r is the fluorescence anisotropy value and Iv and Ih are the fluorescence emission intensities detected with vertical and horizontal polarisation, respectively. […]

By UniProt entry, the sequences of proteins in these tests, tags left out.
UniProt Q12798, whole entry: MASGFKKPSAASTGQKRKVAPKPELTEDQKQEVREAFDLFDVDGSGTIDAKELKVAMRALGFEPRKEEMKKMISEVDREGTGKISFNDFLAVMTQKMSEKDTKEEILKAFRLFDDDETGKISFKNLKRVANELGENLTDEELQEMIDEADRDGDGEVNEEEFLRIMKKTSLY

K-RasG12V/centrin1 = K-RasG12V/centrin1 (Homo sapiens, UniProt Q12798); assay: Cellular BRET Rluc8-K-RasG12V/GFP2-centrin1 in HEK293-ebna cells; type: cell-based

- Kd (centrin1): 900 nM
- effect on BRETtop of K-RasG12V/centrin1 (K-RasG12V/centrin1; ophiobolin A 2.5 µM, calmidazolium 10 µM, calmirasone1 20 µM, 24 h, n = 3): lowered
- IC50 (K-RasG12V/centrin1; read-out: IC50, inhibition of K-RasG12V/centrin1 BRET interaction, HEK293-ebna, donor/acceptor plasmid ratio 1/19, 24 h treatment, n = 2): 41600 nM
SMILES: CC(C)c1ccc2cc(C(F)(F)F)c(=O)c3c(N4CCCCC4)c(C=O)c(c1)c23
- Kd (CaM): 870 nM

Source: publication PMC10296094, “K-Ras Binds Calmodulin-Related Centrin1 with Potential Implications for K-Ras Driven Cancer Cell Stemness” (Cancers, 2023)
